Reference: paper PMC7698382

Biological target: Purified human plasmin (human)
Assay: protease inhibition assay (residual amidolytic activity, tight-binding inhibitor fit); enzyme (plasmin 3 nM; FVIIa/sTF 20 nM; pKLK and FXIa 1 nM each) incubated with inhibitor (10^-1 to 2 x 10^3 nM; up to 3 µM in Figure 3B) for 1 h at room temperature in TBS pH 7.5 (50 mM Tris-HCl, 100 mM NaCl), 0.1 mg BSA/mL, 2 mM Ca2+; synthetic substrate added to 1 KM; Ki corrected for substrate

Ki: 0.49 nM
Substance: Aprotinin (bovine pancreatic trypsin inhibitor, BPTI) (from UniProt P00974 36-93) (natural protein)
